Data published in PubChem BioAssay AID1347120 (National Center for Advancing Translational Sciences (NCATS), 2019).
Only a part is listed here, and it is no random draw. Results filed as inconclusive are left out. Activity calls are given as the source filed them. Calls follow the shape of the dose curve; as a rule, active = well fitted activation curve with a large enough effect; inconclusive = small, poorly fitted or top-dose-only effect; inactive = no such curve, though single readings can be large or run the other way.

assay: qHTS for Suppressors of FUS Proteinopathy: Primary screen using FUS-linked yeast assay;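 also: plate controls were DMSO vehicle for no effect and reference control for full effect; nearly all actives have a fitted effect of over 55% in size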; conditions: S. cerevisiae FUS-expressing, OD600, 24 h; at 76.6 µM (top of the series)
In short: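 Compound concentration series was pinned onto galactose-induced FUS-expressing yeast seeded at OD 0.005. Plates sat 24hr at 30C; absorbance at 600 nm gave growth. DMSO served as background control.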

SMILES	growth rescue (activation)
Cc1ccc(OP(=O)(Nc2nccs2)Oc2ccc(C)cc2)cc1	inactive: -24.1%
COc1ccccc1OP(=O)(Nc1ccc(C)cn1)Oc1ccccc1OC	inactive: 13.3%
Clc1ccc(Cl)c(NC2=NCC(CBr)S2)c1 (configuration not stated)	inactive: -0.0987%
CN1CCCC(OC(=O)C(c2ccccc2)c2ccccc2)C1 (configuration not stated)	inactive: 1.7%
CC(=O)c1ccc(N2CC2c2ccncc2)cc1 (configuration not stated)	inactive: -8.2%
C[C@@H]1C=CCP(=O)(Oc2ccccc2)O1 (some centres not stated)	inactive: -26.3%
C[C@H]1OP(=O)(Oc2ccccc2)C[C@@H]2O[C@@H]21 (some centres not stated)	inactive: -13.2%
CC(=O)Nc1ccc(Oc2c([N+](=O)[O-])cc([N+](=O)[O-])cc2[N+](=O)[O-])cc1	inactive: 26.2%
CC(=O)Nc1ccc([As](=O)(O)O)c(O)c1	inactive: -9.02%
CCOc1ccc(C2=NCC(CBr)S2)cc1 (configuration not stated)	inactive: -22.6%
O=P1(Nc2nc3ccc(Cl)cc3s2)COc2ccccc2O1 (configuration not stated)	inactive: -39.4%
CCc1cc(O)c([N+](=O)[O-])c(C)c1[N+](=O)[O-]	inactive: -1.03%
CC(C)(C)C(=O)NC(Sc1ccccc1)C(Cl)(Cl)Cl (configuration not stated)	inactive: -5.79%
Cc1ccc(OP(=O)(Nc2ccccn2)Oc2ccc(C)cc2)cc1	inactive: 10.7%
CC(=O)NC(SC(=S)N(CC(C)C)CC(C)C)C(Cl)(Cl)Cl (configuration not stated)	inactive: -3.12%
COC(=O)c1cc2c(s1)N=C(c1ccccc1)N(C)P2(=O)N1CCOCC1 (configuration not stated)	inactive: 5.51%
CCC(=O)N1C2C3N(C(=O)CC)C1C1N(C(=O)CC)C(C(N1C(=O)CC)N3C(=O)CC)N2C(=O)CC	inactive: 8.16%
O=C(OC1CN2CCC1CC2)c1ccccc1 (configuration not stated)	inactive: 12.7%
CN(C)C(=O)Oc1noc2ccccc12	inactive: -3.19%
O=c1c2cc([N+](=O)[O-])ccc2[nH]c2c([N+](=O)[O-])cc([N+](=O)[O-])cc12	inactive: 10.6%
Cc1ccccc1OP(=O)(Nc1ccccn1)Oc1ccccc1C	inactive: 5.66%

SMILES	growth rescue (activation)
CC(NC(=O)COC(=O)C(O)(c1ccccc1)c1ccccc1)c1ccccc1 (configuration not stated)	inactive: -2.61%
O=C(NC1CCS(=O)(=O)C1)NP(=S)(Oc1ccccc1)Oc1ccccc1 (configuration not stated)	inactive: -2.11%
CCNC(=S)/N=C(\N)N[N+](=O)[O-]	inactive: -7.6%
Cc1ccc(NP(=O)(Oc2cccc(C)c2)Oc2cccc(C)c2)nc1	inactive: -6.55%
c1ccc(-c2nn[nH]n2)c(-c2nn[nH]n2)c1	inactive: 13.9%
O=P1(N(CCCl)CCCl)OCCC2CCCCN21 (configuration not stated)	inactive: 3.17%
O=[N+]([O-])c1ncn(CCn2cnc([N+](=O)[O-])n2)n1	inactive: -15.3%
O=[N+]([O-])c1ccc(O)c(/C=N/Nc2ccc([N+](=O)[O-])cc2[N+](=O)[O-])c1	inactive: -17.3%
O=[As](O)(c1ccccc1)c1ccc(O)cc1	inactive: -3.16%
Nc1ccc([As](=O)(O)c2ccc([N+](=O)[O-])cc2)cc1	inactive: 21.3%
C(Cc1nn[nH]n1)Cc1nn[nH]n1	inactive: -27.2%
O=C(OC1CN2CCC1CC2)c1cccc(Cl)c1 (configuration not stated)	inactive: 13.8%
Nc1ccc(CCCCOc2ccccc2)cc1	inactive: 22.7%
COc1ccc(N)c([N+](=O)[O-])c1[N+](=O)[O-]	inactive: -13.1%
CN(C)C1(CNC(=O)c2ccc(Cl)c(S(N)(=O)=O)c2)CCCCC1	inactive: 4.78%
O=P(Nc1ccccn1)(c1ccc(Br)cc1)c1ccc(Br)cc1	inactive: 52.9%
C[C@H]1OP(=O)(Oc2ccccc2)[C@H](O)[C@H](O)[C@H]1N=[N+]=[N-] (some centres not stated)	inactive: 14.5%
O=P(Nc1nc2ccccc2s1)(c1ccccc1)c1ccccc1	inactive: 29.6%
O=P(Nc1nccs1)(c1ccccc1)c1ccccc1	inactive: -20.4%
CC(C)C(=O)NC(Sc1ccccc1)C(Cl)(Cl)Cl (configuration not stated)	inactive: 14.9%
c1nnnn1CCn1cnnn1	inactive: -7.7%
